# Source: patent publication US10118901B2 (priority 2013, dated 2018)
# Biological target: HDAC enzymes (Hela Nuclear Extract)
# Assay type: biochemical
smiles,measurement,value
CC(/C=C/C(=O)NO)=C\[C@@H](C)C(=O)c1ccc(N(C)C)cc1 [Trichostatin A],IC50,2.1 nM
